Measured values as given in publication PMC9020777.

Amino acid sequences for entries named in this document (tags omitted).
mCerulean3-BCL-2 (human), P10415, UniProt P10415, whole entry: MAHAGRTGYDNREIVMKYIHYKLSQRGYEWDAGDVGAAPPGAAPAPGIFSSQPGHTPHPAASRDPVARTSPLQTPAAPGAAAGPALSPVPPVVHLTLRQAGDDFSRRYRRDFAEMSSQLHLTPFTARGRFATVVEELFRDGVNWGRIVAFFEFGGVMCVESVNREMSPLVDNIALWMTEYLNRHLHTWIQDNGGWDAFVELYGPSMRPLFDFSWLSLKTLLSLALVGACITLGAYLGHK
mCerulean3-BCL-XL (human), Q07817, UniProt Q07817, whole entry: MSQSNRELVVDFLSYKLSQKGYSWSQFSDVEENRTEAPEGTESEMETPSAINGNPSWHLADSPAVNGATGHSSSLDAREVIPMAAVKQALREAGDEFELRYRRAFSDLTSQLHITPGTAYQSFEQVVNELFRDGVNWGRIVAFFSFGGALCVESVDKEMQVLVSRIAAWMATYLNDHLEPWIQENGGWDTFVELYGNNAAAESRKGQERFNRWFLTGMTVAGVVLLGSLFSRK
mCerulean3-MCL-1 (human), Q07820, UniProt Q07820, whole entry: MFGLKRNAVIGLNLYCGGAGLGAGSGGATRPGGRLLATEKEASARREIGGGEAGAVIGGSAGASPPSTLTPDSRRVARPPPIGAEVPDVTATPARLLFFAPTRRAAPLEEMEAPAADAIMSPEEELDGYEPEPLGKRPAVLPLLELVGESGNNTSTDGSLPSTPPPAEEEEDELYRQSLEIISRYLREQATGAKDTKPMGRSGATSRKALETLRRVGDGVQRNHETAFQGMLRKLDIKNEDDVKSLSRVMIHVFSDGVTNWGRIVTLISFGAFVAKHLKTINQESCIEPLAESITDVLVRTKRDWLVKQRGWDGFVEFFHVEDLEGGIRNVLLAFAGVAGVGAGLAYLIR

What was measured:
Test in all cases: FRET or BRET
Details in all cases: remark: other sources report otherwise
[1] = target: mCerulean3-BCL-2 (human), P10415
[2] = target: mCerulean3-BCL-XL (human), Q07817
[3] = target: mCerulean3-MCL-1 (human), Q07820

Kd [1]: 4 µM
Kd [2]: 4 µM
Kd [3]: 2 µM
B1: Venus-PUMA, Q9BXH1 1-193 (natural protein)
chain: MARARQEGSSPEPVEGLARDGPRPFPLGRLVPSAVSCGLCEPGLAAAPAAPTLLPAAYLCAPTAPPAVTAALGGSRWPGGPRSRPRGPRPDGPQPSLSLAEQHLESPVPSAPGALAGGPTQAAPGVRGEEEQWAREIGAQLRRMADDLNAQYERRRQEEQQRHRPSPWRVLYNLIMGLLPLPRGHRAPEMEPN
